JMJD2E inh: inhibitors of human JMJD2E histone demethylase | JMJD2E catalytic domain, FDH-coupled NADH fluorescence (FDH is formaldehyde dehydrogenase) | Potency, µM (titrated, usually from 57.1 µM), for inactives: top-dose activity change, negative = inhibition, hits mostly inhibitors | 1.6% of 230,000 active | AID 2147; active = well fitted inhibition curve with a large enough effect, not every such curve was filed as active; inconclusive = small, poorly fitted or top-dose-only effect, or another doubt; inactive = no such curve, though single readings can be large or run the other way;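 also: potency is read from the fitted curve at half-maximal effect; 0% = wells with enzyme and -100% = buffer wells without enzyme; nearly all actives have a fitted effect of over 50% in size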
miR-21 reporter: miR-21 reporter, rising signal | AID 2288 | HeLa miR-21 FLuc reporter, luciferase, 48 h | 340,000 tested, under 10 active | Potency, µM (titrated, usually from 38.3 µM), for the others: at the top dose reporter change, positive = more light; active = well fitted rising curve with a large enough effect; inconclusive = small, poorly fitted or top-dose-only effect; inactive = no such curve, though single readings can be large or run the other way;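 also: % of control where 0% means no effect; miR-21 action dims this reporter so a rising signal means less miR-21 action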
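Luminescence from a firefly luciferase reporter carrying a miR-21 binding site downstream, stably expressed under a CMV promoter in HeLa cells that make miR-21 endogenously, reports miRNA modulation after 48 h compound exposure up to approximately 40uM final.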
LMNA splice mod: modulators of lamin A splicing; HeLa LMNA splicing GFP/RFP minigene ratio, 48 h; Potency, µM (doses to about 46.1 µM), for the others: at the top dose ratio change, negative = inhibition, hits mostly inhibitors; 0.01% of 200,000 active; active = well fitted inhibition curve with a large enough effect in the signal ratio, with a control signal flat, not every such curve was filed as active; inconclusive = small, poorly fitted or top-dose-only effect, or effect the other way, or a change in a side signal; the % refers to the signal ratio; also: potency is read from the fitted curve at half-maximal effect; % is scaled to controls: 0 for no effect and ±100 for the full control effect
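S3 HeLa cells stably expressing lamin A-EGFP splicing minigene plus DsRed2, 600 cells/well, 48 h compound exposure at 37C. Laser-scanning cytometry; analysed as GFP (500-530 nm)/RFP (575-640 nm) total intensity ratio; 0.5% DMSO vehicle.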
Sfp PPTase inh: blocks B. subtilis Sfp PPTase activity. AID 1490. Q9F4F7. Biochemical Sfp PPTase activity, qHTS. hit rate 3.5% among 310,000. Potency, µM, for the others: max response, negative = inhibition, usual class: inhibitors; active = well fitted inhibition curve with a large enough effect; inconclusive = small, poorly fitted or top-dose-only effect, or another doubt; inactive = no such curve, though single readings can be large or run the other way;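 also: the enzyme is Sfp with the accession as filed and its product quenches rhodamine fluorescence; potency is read from the fitted curve at half-maximal effect; 0% = enzyme reaction without inhibitor and -100% = no enzyme wells; top concentration of the series not given in the record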
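Fluorescence-quenching assay with 15 nM Sfp, 5 uM rhodamine-CoA and 12.5 uM BHQ-2-labelled ybbR peptide in pH 7.6 Hepes/MgCl2 buffer. Enzyme was pre-incubated with compound for 15 min at room temperature. Rate was taken from the 30-min fluorescence change (525/598 nm).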
G9a inh: blocks human histone lysine methyltransferase G9a; G9a H3K9 monomethylation, AlphaScreen, 2 h; Potency, µM (series often up to 102 µM), for the others: top-dose activity, negative = inhibition, actives largely listed as inhibitors; Q96KQ7; 8.8% of 350,000 active; AID 504332; also: potency is read from the fitted curve at half-maximal effect; % is scaled to controls: 0 for no effect and ±100 for the full control effect; nearly all actives have a fitted effect of over 75% in size
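Compounds were preincubated with 20 nM G9a for 15 min, after which biotinylated H3K9 peptide (500 nM) and SAM (20 uM) started a 2 h room-temperature reaction. Monomethylated product was quantified by antibody-based AlphaScreen chemiluminescence.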
ALDH1A1 inh: ALDH1A1 (human) enzyme inhibition | P00352 | 7.3% of 220,000 active | Potency, µM (titrated, usually from 75.3 µM), for the others: top-dose activity, negative = inhibition, actives largely listed as inhibitors | Purified ALDH1A1, NADH fluorescence, propionaldehyde substrate | AID 1030; active = well fitted inhibition curve with a large enough effect, not every such curve was filed as active; inconclusive = small, poorly fitted or top-dose-only effect, or another doubt; inactive = no such curve, though single readings can be large or run the other way;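 also: potency is read from the fitted curve at half-maximal effect; plate controls were no enzyme wells and a reference inhibitor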
* marks the source's active call; other numbers are inactive results; ? = inconclusive; · = not tested or not shown; [ ] = dose if it differs, or a comment. The list is not random: actives were taken first. Their share in the collection is about 13%. Unless noted, calls follow the shape of the dose curve; as a rule, active = well fitted curve in the direction sought with a large enough effect; inconclusive = small, poorly fitted or top-dose-only effect, or another doubt; inactive = no such curve, though single readings can be large; an effect the other way counts as inactive or inconclusive.

No.	JMJD2E inh	miR-21 reporter	LMNA splice mod	Sfp PPTase inh	G9a inh	ALDH1A1 inh	mol
1	-7%	17%	?	-1%	79µM*	25µM*	N#CC1=C(N)NC(SCc2ccccc2)=C(C#N)C12CCCC2
2	6%	28%	1%	16%	71µM*	28µM*	N#CC1=C(N)NC(SCC(=O)Nc2ccc(Br)cc2)=C(C#N)C12CCCCC2
3	9%	3%	1%	10%	10%	-8%	CC1=C(C(=O)Nc2ccccc2)C2(CCCCC2)C(C#N)=C(SCC(N)=O)N1
4	?	-2%	-13%	-31%	?	22µM*	CC1(C)CC(=O)C2=C(C1)NC(SCC(=O)Nc1ccccc1)=C(C#N)C21CCCCC1
5	1%	28%	?	33%	-44%[0.0925 µM]	8.9µM*	CC(C)(C)C1CCC2(CC1)C(C#N)=C(SCC(=O)Nc1ccccc1)NC(=O)C2C#N (stereo not drawn)
6	12%	-10%	-1%	?	20µM*	?	CCSC1=C(C#N)C2(CCCC2)C(C#N)=C(N)N1
7	3%	-4%	-4%	34%	?	-2%	N#Cc1c(-c2ccccc2)nc(SCC(=O)Nc2ccccc2)[nH]c1=O
8	?	-3%	-16%	-18%	?	1.1µM*	N#CC1=C(SCC(=O)c2cc3ccccc3oc2=O)NC(=O)C(C#N)C12CCCC2 (stereo not drawn)
9	-6%	-7%	?	0%	?	?	CSC1=C(C#N)C2(CCCC2)C(C#N)=C(N)N1
10	?	-5%	?	6%	14%	-19%	Cc1nc(SCC(=O)c2cc3ccccc3oc2=O)c(C#N)c(-c2ccccc2)c1C(=O)Nc1ccccc1
11	-7%	-35%	9%	?	50µM*	13µM*	N#CC1=C(N)NC(SCC(=O)c2ccccc2)=C(C#N)C12CCCC2
12	·	28%	·	·	?	·	O=C(CC1(O)C(=O)N(CCc2ccccc2)c2ccc(Br)cc21)c1ccccc1O (stereo not drawn)
13	·	·	·	·	5%[0.501 µM]	·	CCOc1cc(N2CCOCC2)c(OCC)cc1NC(=O)COC(=O)CCOc1cc(C)ccc1C
14	·	0%	9%[46 µM]	·	?	·	CCC(CO)NC(=O)C(=O)Nc1c2c(nn1-c1ccc(F)cc1)CSC2 (stereo not drawn)
15	?	-16%	7%[46 µM]	15%	-30%	?	c1ccc(SCc2cn3cccnc3n2)nc1
16	0%	-1%	19%[46 µM]	15%	25%[59 µM]	5%	NC(=O)CSc1nc2ccc([N+](=O)[O-])cc2[nH]1
17	-5%	-4%	?	-3%	?	25µM*	Cc1cccc2nc(CSc3nc4ccc([N+](=O)[O-])cc4[nH]3)c(Br)n12
18	5%	-42%	6%	18%	50µM*	8%	Nc1ccccc1SCc1cn2ccccc2n1
19	-10%	-28%	-8%	-12%	35µM*	2%	Nc1ccccc1SCc1cn2cccnc2n1
20	2%	-17%	?	-2%	28µM*	-11%	O=[N+]([O-])c1ccc(CSc2nc3ccccc3[nH]2)cc1
21	·	0%	-3%[46 µM]	·	1%[12.7 µM]	·	CCOc1ccc(C(=O)Nc2ccccc2C(=O)OCc2cc(=O)n3nc(C4CC4)sc3n2)cc1
22	1%	·	·	2%	·	4%	C=C[C@H](C)[C@](C)(O)c1ccccc1
23	·	6%	·	5%	·	·	O=C(Cn1ncc2c3ccccc3n(Cc3ccccc3)c2c1=O)NCCCN1CCCC1=O
24	-6%	-34%	0%	45µM*	?	?	Nc1nc(CSc2nc3ccccc3[nH]2)cs1
25	-2%	-27%	?	10%	-32%	3%	Cc1cccc2nc(CSc3nc4ccccc4[nH]3)cn12
26	-3%	-61%	4%[46 µM]	10%	-30%	0%	Clc1ccc(SCc2cn3ccccc3n2)cc1
27	-17%	11%	?	-16%	25%[59 µM]	?	CC1C/C(=N/Nc2nc3ccccc3[nH]2)CC(C)(C)C1 (stereo not drawn)
28	24%	-16%	-7%	-8%	13%[59 µM]	25µM*	CC1C/C(=N/NC(=O)c2ccc(CSc3nc4ccccc4[nH]3)cc2)CC(C)(C)C1 (stereo not drawn)
29	-10%	-64%	·	45µM*	2%	-12%	c1ccc2c(SCc3cn4ccccc4n3)nncc2c1
30	2%	-54%	·	2%	45µM*	-8%	c1ccc2[nH]c(SCc3cn4ccccc4n3)nc2c1
31	·	0%	·	-16%	·	·	CCOC(=O)C1CCN(C/C=C/c2ccccc2[N+](=O)[O-])CC1
32	·	·	·	4%	-1%[12.7 µM]	4%	O=C(c1cnccn1)N1CCC2(CCCN(c3ccncc3)C2)CC1
33	·	·	·	·	-3%[12.7 µM]	·	Cc1ccc(S(=O)(=O)N2CCOCC2)cc1NC(=O)COc1ccc(C(=O)c2ccccc2)cc1
34	?	21%	·	-5%	40µM*	?	CN(C)CCc1cc2c(c3c1ccc1ccccc13)OCO2
35	?	-29%	-3%	6%	35µM*	?	c1ccc2cc(-c3cc4ccccn4c3)ccc2c1
36	·	·	·	·	·	-2%[13.5 µM]	c1ccc2cc(-c3cc(-c4cc(-c5ccc6ccccc6c5)on4)no3)ccc2c1
37	·	-25%	·	-17%	35µM*	·	CCn1cc(C(=O)O)c(=O)c2cc(F)c(N3CCN(C(=S)NC(=O)c4c(OC)cccc4OC)CC3)cc21
38	?	2%	·	18%	22%	·	CCn1cc(C(=O)O)c(=O)c2cc(F)c(N3CCN(C(=S)Nc4ccccc4OC)CC3)cc21
39	12%	-5%	-5%	8%	40µM*	2%	CCOC(=O)C1CN(c2cc3c(cc2F)c(=O)c(C(=O)O)cn3CC)OC1C(=O)OCC (stereo not drawn)
40	?	-7%	-11%	0%	14µM*	?	CCOC(=O)N1CCN(C(=O)c2cn(CC)c3cc(N4CCN(C)CC4)c(F)cc3c2=O)CC1
41	-13%	0%	·	-2%	50µM*	?	CCn1cc(C(=O)O)c(=O)c2cc(F)c(N3CCN(C(=S)NC(=O)c4ccc(F)c(F)c4)CC3)cc21
42	·	·	·	18%	?	·	O=C(O)c1ccc(S(=O)(=O)N[C@H](Cc2ccc(O)cc2)C(=O)O)cc1
43	·	·	·	-18%	·	·	CS(=O)(=O)NC(=O)CCC/C=C\C[C@H]1C(=O)C[C@@H](O)[C@@H]1/C=C/[C@@H](O)COc1ccccc1
44	-22%	-14%	10%	-9%	28µM*	?	CCOc1ccc(-c2cn(-c3cccc(SC)c3)c(=O)[nH]2)cc1
45	-6%	13%	?	5%	4%	-3%	O=C1CCCc2c1cc(-c1ccccc1)n2-c1ccc(O)cc1
46	5%	18%	?	-3%	13µM*	16µM*	COc1ccc(-n2c(-c3ccccc3)cc3c2CCCC3=O)cc1
47	·	3%	·	·	-38%[59 µM]	·	COc1ccc(S(=O)(=O)c2c(O)c3ccc(C(=O)NCc4ccccc4)cc3[nH]c2=O)cc1

5 compounds out of the list, ordered by SMILES length, descending:
No.	JMJD2E inh	miR-21 reporter	LMNA splice mod	Sfp PPTase inh	G9a inh	ALDH1A1 inh	mol
11	-7%	-35%	9%	?	50µM*	13µM*	N#CC1=C(N)NC(SCC(=O)c2ccccc2)=C(C#N)C12CCCC2
27	-17%	11%	?	-16%	25%[59 µM]	?	CC1C/C(=N/Nc2nc3ccccc3[nH]2)CC(C)(C)C1 (stereo not drawn)
35	?	-29%	-3%	6%	35µM*	?	c1ccc2cc(-c3cc4ccccn4c3)ccc2c1
15	?	-16%	7%[46 µM]	15%	-30%	?	c1ccc(SCc2cn3cccnc3n2)nc1
18	5%	-42%	6%	18%	50µM*	8%	Nc1ccccc1SCc1cn2ccccc2n1

Compound activity deposited in PubChem BioAssay by National Center for Advancing Translational Sciences (NCATS).
